We go through one compound from paper PMC12105006, “AI-Driven De Novo Design and Development of Nontoxic DYRK1A Inhibitors” (Journal of Medicinal Chemistry, 2025).

The test in a line: Oxygen radical absorbance capacity (ORAC) antioxidant assay. The protocol: The antioxidant activity of the newly synthesized compounds was assessed using the oxygen radical absorbance capacity (ORAC) in vitro assay. The FLUOstar Optima plate reader (BMG Labtech GmbH, Offenburg, Germany) was employed, with excitation at 485 nm and emission at 520 nm. 2,2′-Azobis(amidinopropane) dihydrochloride (AAPH), (±)-6-hydroxy-2,5,7,8-tetramethylchromane-2-carboxylic acid (trolox), and fluorescein (FL) were procured from Sigma-Aldrich. The assay was conducted in 75 mM phosphate buffer (pH = 7.4) with a final reaction volume of 200 μL. Each well of black 96-well plates contained 25 μL of the antioxidant sample and 150 μL of fluorescein (10 nM). After preincubation at 37 °C for 30 min, 25 μL of a 240 mM AAPH solution was rapidly added using a multichannel pipet. Fluorescence measurements were taken every 90 s for 90 min, with the plate agitated before each reading. The compounds were tested at four concentrations (10–1 μM). A blank containing FL and AAPH in phosphate buffer, as well as four concentrations of trolox (10–1 μM) served as controls. All reactions were performed in duplicate, with at least three independent tests per compound. Data were exported for analysis, plotting absorbance versus time. The area under the fluorescence decay curve (AUC) was calculated for each sample. ORAC values were derived from the AUC values and expressed as Trolox equivalents.

Where two headings read alike, the source gives them in different places.

The compound `CN1CCC(n2cc(-c3cnc4[nH]cc(-c5cc(Cl)cc(Cl)c5)c4c3)cn2)CC1` [Compound 6, 3-(3,5-Dichlorophenyl)-5-(1-(1-methylpiperidin-4-yl)-1H-pyrazol-4-yl)-1H-py-rrolo[2,3-b]pyridine] had an ORAC of 0.44 ± 0.06. Moreover, the ORAC (phosphate buffer pH 7.4, fluorescein/AAPH) is 0.44 ± 0.06 μmol of trolox equivalents/μmol of tested compound.
